# Experimental data reported in US9266930.
# T1: HLA-DR2w2β1 (DRB1*1501) (human)
# T1 chain 1: not shown
# T1 chain 2: not shown
# What was measured:
# [1] = target: T1, HLA-DR2w2β1 (DRB1*1501) (human)
# HLA-A*0202 (human) = assay: competition with 125I probe peptide for purified HLA, gel filtration
Binder,IC50 [1],IC50 (HLA-A*0202 (human))
KCNLYADSAWENVKN (modifications not checked) [35.0172 … (Pf SSP2 211)],18.2 µM,–
FMKAVCVEV (modifications not checked) [1167.16],–,0.307 µM
